The chains behind the UniProt entries cited, without tags or fusion partners.
UniProt P35372, whole entry: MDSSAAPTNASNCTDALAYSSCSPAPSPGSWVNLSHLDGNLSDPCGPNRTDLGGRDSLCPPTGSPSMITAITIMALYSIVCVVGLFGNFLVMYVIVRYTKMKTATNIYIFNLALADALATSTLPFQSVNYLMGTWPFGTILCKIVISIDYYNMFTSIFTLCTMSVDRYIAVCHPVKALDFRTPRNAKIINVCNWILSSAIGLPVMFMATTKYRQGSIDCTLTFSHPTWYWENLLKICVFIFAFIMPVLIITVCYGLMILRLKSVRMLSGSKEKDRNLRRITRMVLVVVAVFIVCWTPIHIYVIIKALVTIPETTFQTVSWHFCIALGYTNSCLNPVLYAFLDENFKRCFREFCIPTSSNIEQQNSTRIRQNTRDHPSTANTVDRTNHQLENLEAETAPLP

In patent publication US8778958B2, “Synthesis of metabolically stable agents for alcohol and drug abuse” (priority 2008, dated 2014):

Legend:
κ-opioid receptor = κ-opioid receptor (Homo sapiens, UniProt P41145); assay: Competitive radioligand binding, κ-opioid receptor ([3H]U69593); details: read-out: Ki (nM) ± SEM, κ; Table 1b, N-oxides
μ-opioid receptor = μ-opioid receptor (Homo sapiens, UniProt P35372); assay: Competitive radioligand binding, μ-opioid receptor ([3H]DAMGO); details: read-out: Ki (nM) ± SEM, μ; Table 1b, N-oxides
δ-opioid receptor = δ-opioid receptor (Homo sapiens, UniProt P41143); assay: Competitive radioligand binding, δ-opioid receptor; details: Table 1b; concentration not given

## O=C(Cc1ccccn1)N[C@@H]1CC[C@@]2(O)[C@H]3Cc4ccc(O)c5c4[C@@]2(CC[N+]3([O-])CC2CC2)[C@H]1O5 (stereo partly drawn)
κ-opioid receptor
  Ki: 100 nM
μ-opioid receptor
  Ki: 114 nM
δ-opioid receptor
  Inhibition of agonist binding, δ: <50% inh
